Consider 2 molecules from US8618107B2 (Gilead Connecticut, Inc., priority 2010, dated 2013).

By UniProt entry, the sequences of proteins in these tests, tags left out. Where a name states a change or a piece, a line headed by the entry shows the natural chain unless it says otherwise.
UniProt Q06187: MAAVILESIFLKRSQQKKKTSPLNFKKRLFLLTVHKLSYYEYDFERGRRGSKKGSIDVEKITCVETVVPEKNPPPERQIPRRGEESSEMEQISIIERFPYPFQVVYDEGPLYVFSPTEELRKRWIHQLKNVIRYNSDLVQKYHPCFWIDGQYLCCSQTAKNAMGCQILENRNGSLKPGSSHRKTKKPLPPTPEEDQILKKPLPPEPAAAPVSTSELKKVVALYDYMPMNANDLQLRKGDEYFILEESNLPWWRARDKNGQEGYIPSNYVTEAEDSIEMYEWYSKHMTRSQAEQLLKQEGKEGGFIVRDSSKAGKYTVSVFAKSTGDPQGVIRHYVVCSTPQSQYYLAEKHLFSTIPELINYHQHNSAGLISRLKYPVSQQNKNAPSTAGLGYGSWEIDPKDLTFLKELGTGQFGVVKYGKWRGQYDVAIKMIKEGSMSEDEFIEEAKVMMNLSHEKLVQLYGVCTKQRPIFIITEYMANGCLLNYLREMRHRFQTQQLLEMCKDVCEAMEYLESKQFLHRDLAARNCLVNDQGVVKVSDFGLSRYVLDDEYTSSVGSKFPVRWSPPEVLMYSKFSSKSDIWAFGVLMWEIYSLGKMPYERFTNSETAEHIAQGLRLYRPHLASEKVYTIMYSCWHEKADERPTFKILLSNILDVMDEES

This assay concerns the target Btk (Homo sapiens (Human), UniProt Q06187). The assay is described as follows: standard biochemical Btk Kinase Assay (Example 901). The conditions noted are these: Table 2.

The molecule `CN1CCN(c2ccc(Nc3cc(-c4cc(F)cc(N5CCn6c(cc7c6CCCC7)C5=O)c4CO)cn(C)c3=O)nc2)CC1` [Example 197, 2-(5-fluoro-2-(hydroxymethyl)-3-(1-methyl-5-(5-(4-methylpiperazin-1-yl)pyridin-2-ylamino)-6-oxo-1,6-dihydropyridin-3-yl)phenyl)-3,4,6,7,8,9-hexahydropyrazino[1,2-a]indol-1(2H)-one] showed a half-maximal inhibitory concentration (IC50) of 2 nM.

Molecule `Cn1cc(-c2cc(F)cc(N3CCn4c(cc5c4CCCC5)C3=O)c2CO)cc(Nc2ccc(N3CCN(C4COC4)CC3)cn2)c1=O` [Example 210, 2-(5-fluoro-2-(hydroxymethyl)-3-(1-methyl-5-(5-(4-(oxetan-3-yl)piperazin-1-yl)pyridin-2-ylamino)-6-oxo-1,6-dihydropyridin-3-yl)phenyl)-3,4,6,7,8,9-hexahydropyrazino[1,2-a]indol-1(2H)-one] registered an IC50 of 3.9 nM.
